Earlier results in patent publication US5545628A, “Pharmaceutical composition containing fenofibrate” (priority 1995, dated 1996).

Details: fenofibric acid

CC(C)(Oc1ccc(C(=O)c2ccc(Cl)cc2)cc1)C(=O)O [Fenofibric acid]
binding to plasma albumin: extensively bound to plasma albumin
